Assay results: publication PMC12007268

These substances were tested against human neonatal Fc receptor as used in the ELISA (construct not stated), P55899;P61769 (assay: ELISA). Conditions: pH 7.4; read off a plot.
In the case of trastuzumab (wild-type Fc) Q311M; M428L, the response is reported as 0.14 OD450.
Work on “trastuzumab (wild-type Fc) L309E; Q311M; M428L” yielded a response of 0.14 OD450.
With trastuzumab (wild-type Fc) Q311R; M428L the response was 0.13 OD450.
Substance “trastuzumab (wild-type Fc) L309Y; Q311M; M428L” has a response of 0.19 OD450.
